Test system: MDA-MB-468 cells
Test: Apoptosis assay
Assay type: cell-based, human
Details: MDA-MB-468 cells (Figure S5)

## CC(C)NC[C@@H](C(=O)N1CCN(c2ncnc3c2[C@H](C)C[C@H]3O)CC1)c1ccc(Cl)cc1 [GDC-0068, reference compound]
  apoptosis induced: ≤ 3%
